{"source": "PubChem BioAssay AID2017", "about": "(National Center for Advancing Translational Sciences (NCATS), 2009)", "note": "The list shows a part of the results, in another mix than the full data. Records with an inconclusive call do not appear. The source made the active and inactive calls. The call rests on the fitted dose curve; in most records, active means well fitted curve in the direction sought with a large enough effect; inconclusive means small, poorly fitted or top-dose-only effect, or another doubt; inactive means no such curve, though single readings can be large or run the other way."}
{"system": "4-diphosphocytidyl-2-C-methyl-D-erythritol kinase IspE (bacterial, species not stated)", "test": "Confirmatory Assay for Inhibitors of Human Galactokinase (GALK): CDP-Me assay counterscreen", "conditions": "ATP depletion, Kinase-Glo luminescence; at 115 µM (top of the series)", "text": "NIH Molecular Libraries Probe Production Centers Network [MLPCN] NIH Chemical Genomics Center [NCGC] MLPCN Grant: R03 MH085689-01 Assay Submitter (PI): Kent Lai (University of Utah School of Medicine, 50 N Mario Capecchi Drive, Salt Lake City, UT 84132) NCGC Assay Overview The GHMP kinase family is a unique class of important enzymes that plays an essential role in many metabolic processes. It contains more than 170 protein members among which are the galactokinase (GALK) and the CMK enzymes. GALK plays a crucial role in galactose processing and is a potential therapeutic target for Classic Galactosemia (OMIM: 230400). CMK is involved for the non-mevalonate synthesis of isoprenoids precursors and natural products like sterols or ubiquinones which are important to many biological functions. Although the sequence identity between GALK and CMK is low, the three-dimensional structures and active sites are highly similar. Therefore to determine the validity and selectivity of an active compound observed in the GALK qHTS screen (AID: 1868), a bioluminescent counter-screen targeting bacterial CMK was developed. In addition, because the mevalonate independent synthesis of isoprenoids are more prevalent in opportunistic pathogens such as bacteria, CMK is a potential novel therapeutic target where selective inhibitors could be used to determine potential antibacterial effects. The CMK (provided by Kent Lai) was assayed using ATP and 4-diphosphocytidyl-2-C-methyl-D-erythritol (CDP-ME; Echelon, cat# I-M052) as substrates. Promega Kinase-Glo Plus (cat# V3774) technology was used to detect the residual ATP following kinetic reaction. Briefly, the Kinase-Glo Plus contains Ultra-Glo [5] luciferase and D-luciferin which generates a bioluminescence signal from the remaining ATP.\nNCGC Assay Protocol Summary: Three uL/well of substrate solution (15 uM ATP, 30 uM CDP-ME, 20 mM HEPES pH8.0, 5 mM MgCl2, 40 mM KCl, 1 mM DTT, 0.01% BSA final concentration) was dispensed into 1536-well, assay plates (Greiner, solid white medium-binding plates) with Aurora Discovery BioRAPTR Flying Reagent Dispenser (FRD; Beckton-Dickenson). […] One uL/well enzyme solution (0.25 ug/mL CDP-Me kinase, 20 mM HEPES pH8.0, 5 mM MgCl2, 40 mM KCl, 1 mM DTT, 0.01% BSA final concentration) was then added using the FRD yielding a total kinase reaction volume of 4 uL/ well. After 1 hour of room temperature incubation, 4 uL Kinase-Glo Plus reagent was added for a final assay volume of 8 uL/well. After 1 min, luminescence was detected with the ViewLux plate reader (Perkin Elmer, Waltham, MA) using a 1 sec exposure time and 2x binning settings."}
{"smiles": "CCc1ccc(S(=O)(=O)/N=C2\\C=C(Nc3ccc(C(=O)O)cc3)C(=O)c3ccccc32)cc1", "activity change, negative = inhibition": "inactive: -4.34%"}
{"smiles": "Cc1ccc(C(=O)NC2(O)C(=O)c3ccccc3C2=O)cc1C", "activity change, negative = inhibition": "inactive: -19.5%"}
{"smiles": "N=C1/C(=C/c2cccs2)C(=O)N=C2SN=C(SCc3ccccc3)N12", "activity change, negative = inhibition": "inactive: -0.471%"}
{"smiles": "O=C(O)c1ccc(S(=O)(=O)/N=C2\\C=C(Nc3ccccc3F)C(=O)c3ccccc32)cc1", "activity change, negative = inhibition": "inactive: -13.3%"}
{"smiles": "COc1ccc(N=C2S/C(=C\\c3ccc(OC(C)C(=O)O)c(OC)c3)C(=O)N2CCc2c[nH]c3ccccc23)cc1", "note": "(configuration not stated)", "activity change, negative = inhibition": "inactive: -3.15%"}
{"smiles": "O=C1Nc2ccc([N+](=O)[O-])cc2C1=Nc1cccc(CO)c1", "activity change, negative = inhibition": "inactive: -4.72%"}
{"smiles": "O=C1C=C(N2CCOCC2)c2ccccc2C1=O", "activity change, negative = inhibition": "inactive: -19.5%"}
{"smiles": "O=C(NC1(O)C(=O)c2ccccc2C1=O)c1ccccc1", "activity change, negative = inhibition": "inactive: -16.1%"}
{"smiles": "CN(C)c1cc(Cl)c2nonc2c1N", "activity change, negative = inhibition": "inactive: -19.2%"}
{"smiles": "Cc1ccccc1NC1=C/C(=N\\S(=O)(=O)c2ccc(C(=O)O)cc2)c2ccccc2C1=O", "activity change, negative = inhibition": "inactive: -7.23%"}
{"smiles": "O=[N+]([O-])c1cc([N+](=O)[O-])c2oc(-c3ccccc3)c(Br)c2c1O", "activity change, negative = inhibition": "inactive: -9.68%"}
{"smiles": "CCOC(=O)C1=C(C)OC2(O)c3ccccc3C(=O)C12O", "note": "(configuration not stated)", "activity change, negative = inhibition": "inactive: -13.1%"}
